Assay results reported in patent US7105505B2, “Benzimidazole derivatives useful as histamine H3 antagonists” (Schering Corporation, priority 2002, dated 2006).

By UniProt entry, the sequences of proteins in these tests, tags left out.
UniProt Q9JI35, whole entry: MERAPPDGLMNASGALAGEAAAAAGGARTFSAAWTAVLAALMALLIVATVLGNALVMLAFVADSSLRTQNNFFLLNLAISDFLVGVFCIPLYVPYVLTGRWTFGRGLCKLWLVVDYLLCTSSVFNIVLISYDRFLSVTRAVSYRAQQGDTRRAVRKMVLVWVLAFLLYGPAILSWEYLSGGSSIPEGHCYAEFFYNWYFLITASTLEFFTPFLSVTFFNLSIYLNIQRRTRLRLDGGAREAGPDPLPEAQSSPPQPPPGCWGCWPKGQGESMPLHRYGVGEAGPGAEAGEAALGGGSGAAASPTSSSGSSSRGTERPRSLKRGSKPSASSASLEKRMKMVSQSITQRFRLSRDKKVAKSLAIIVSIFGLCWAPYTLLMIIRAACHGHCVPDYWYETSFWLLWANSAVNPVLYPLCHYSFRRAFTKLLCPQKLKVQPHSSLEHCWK

Target: H3 receptors (Cavia porcellus, UniProt Q9JI35)
Assay: H3 Receptor Binding Assay (guinea pig brain membranes)
Conditions: Receptor Source Guinea pig, [3H]R-α-methyl histamine or [3H]Nα-methyl histamine

Ki: 27 nM
Structure (SMILES): CC(C)c1nc2cc(Br)ccc2n1C1CCN(C(=O)C2CCN(Cc3ccnc(N)c3)CC2)CC1
